Values of other authors, collected in patent US11413240B2 (Board of Regents, The University of Texas System, priority 2016, dated 2022).

Conditions: oral tablet vs intravenous (Walter-Sack et al., 2009)

Question: Which “maximum whole blood concentration, oral relative to intravenous administration” value does the source give for `CN(C)c1ccc2nc3ccc(=[N+](C)C)cc-3sc2c1` [methylene blue] here?
Answer: Its value is 1/100.
